# Assay results published in PubChem BioAssay AID2825 (Sanford-Burnham Center for Chemical Genomics, 2010).
# The list shows a part of the results, in another mix than the full data. The source made the active and inactive calls.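 Rule for the calls: active = inhibition of 50% or more; inactive = inhibition below 50%.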
# Assay: NALP3 inflammasome inhibitors in reconstituted yeast, primary screen, luminescence, uHTS (AID 2825);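 note: plate controls were induced DMSO wells for no effect and uninduced yeast grown without galactose for full effect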
# Conditions: Yeast reconstituted NLRP3/ASC/caspase-1, beta-gal luminescence, 24 h; at 10 µM; hits give high values
row,SMILES,inhibition
1,O=[N+]([O-])c1cccc2n[nH]nc12,inactive: 1.79%
2,CC(=O)N1C2C3N(C(C)=O)C1C1N(C(C)=O)C(C(N1C(C)=O)N3C(C)=O)N2C(C)=O,inactive: -12%
3,CCc1nc2c(n1)c1c(non1O)c1c2no[n+]1[O-],inactive: 7.22%
4,O=[N+]([O-])c1cc([N+](=O)[O-])c(CCNc2ccccc2)c([N+](=O)[O-])c1,inactive: 27.7%
5,Cc1ccc(NP(=O)(Oc2ccccc2)Oc2ccccc2)nc1,inactive: 18.1%
6,COc1ccc(C2=NCC(CBr)S2)cc1 (centres undefined),inactive: 48.6%
7,CN(C)C(=O)OCCc1n(C)cc[n+]1C,inactive: 14.2%
8,CC(C)=N/N=C(\N)N[N+](=O)[O-],inactive: 13.6%
9,CC1CCN(C(=O)Oc2c(Cl)cc(Cl)c3cccnc23)CC1,inactive: 13.2%
10,C[N+]1=C2C=CC=CC=C2SC12C([N+](=O)[O-])=CC([N+](=O)[O-])=C[C-]2[N+](=O)[O-] (centres undefined),inactive: 3.97%
11,Nc1ccc([As](=O)(O)c2ccc(N)cc2)cc1,inactive: 17.8%
12,CCN(/C(=N/P(=O)(N1CCOCC1)N1CCOCC1)N1CCOCC1)c1ccc(OC)cc1,inactive: 3.37%
13,O=C(Nc1cc([As](=O)(O)O)ccc1O)c1ccccc1,inactive: 14.2%
14,O=[N+]([O-])c1cccc(NC2=NCC(CBr)S2)c1 (centres undefined),inactive: 3.45%
15,CC(C)(C)C(=O)NC(Sc1ccncn1)C(Cl)(Cl)Cl (centres undefined),inactive: -14%
16,O=[N+]([O-])c1ncn(CCn2ncnc2[N+](=O)[O-])n1,inactive: 3.46%
17,Cc1ccc(NP(=O)(Oc2ccccc2F)Oc2ccccc2F)nc1,inactive: 7.69%
18,CN(C(=O)Cc1ccc(Cl)c(Cl)c1)[C@H]1CCCC[C@@H]1N1CCCC1,inactive: 23.1%
19,Cc1cc(SC(NC(=O)c2ccc(F)cc2)C(Cl)(Cl)Cl)ncn1 (centres undefined),inactive: -6.96%
20,CCOP(=O)(Nc1ccccc1)OCC,inactive: 1.17%
21,CC(=O)Nc1ccc([As](=O)(O)O)cc1,inactive: 8.07%
22,O=C(O)c1ccccc1[As](=O)(O)O,inactive: 5.98%

row,SMILES,inhibition
1,O=P(Nc1nc2ccc(Cl)cc2s1)(c1ccccc1)c1ccccc1,inactive: 2.95%
2,CCN(N=Nc1nonc1N)c1nonc1N,inactive: 7.75%
3,O=[N+]([O-])c1cc([N+](=O)[O-])c(CCN2CCOCC2)c([N+](=O)[O-])c1,inactive: 12%
4,Cc1ccc(OP(=O)(Nc2nccs2)Oc2ccc(C)cc2)cc1,inactive: 4.32%
5,COc1ccccc1OP(=O)(Nc1ccc(C)cn1)Oc1ccccc1OC,inactive: 11.2%
6,CN1CCCC(OC(=O)C(c2ccccc2)c2ccccc2)C1 (centres undefined),inactive: 10.3%
7,Clc1ccc(Cl)c(NC2=NCC(CBr)S2)c1 (centres undefined),inactive: -1.29%
8,NC(=O)c1cc([N+](=O)[O-])cc([N+](=O)[O-])c1N,inactive: 12.2%
9,Cc1ccc(N/C(=N/P(=O)(N2CCOCC2)N2CCOCC2)N2CCOCC2)cc1,inactive: 7.72%
10,CN(C(=O)Cc1ccc(Cl)c(Cl)c1)[C@H]1CCCC[C@H]1N1CCCC1,inactive: -3.66%
11,Nc1cc(N)c2nonc2c1[N+](=O)[O-],inactive: 6.37%
12,CC(C)CC(=O)NC(Sc1ccc(Cl)cc1)C(Cl)(Cl)Cl (centres undefined),inactive: 21.4%
13,O=C(NC(Sc1ccncn1)C(Cl)(Cl)Cl)c1ccccc1 (centres undefined),inactive: -9.19%
14,Cc1c2non([O-])c-2c(C)[n+](=O)[n+]1[O-],inactive: 11.4%
15,Oc1ccccc1CNc1ccccn1,inactive: 18.8%
16,CC(C)(C)C(=O)NC(Sc1ccccc1)C(Cl)(Cl)Cl (centres undefined),inactive: 10.1%
17,CCOc1ccc(C2=NCC(CBr)S2)cc1 (centres undefined),inactive: 44.5%
18,O=P1(Nc2nc3ccc(Cl)cc3s2)COc2ccccc2O1 (centres undefined),inactive: -12%
19,CC(=O)Nc1ccc(Oc2c([N+](=O)[O-])cc([N+](=O)[O-])cc2[N+](=O)[O-])cc1,inactive: 6.84%
20,CC(=O)Nc1ccc([As](=O)(O)O)c(O)c1,inactive: -11.4%
21,CC(=O)c1ccc(N2CC2c2ccncc2)cc1 (centres undefined),inactive: 14%
22,C[C@H]1OP(=O)(Oc2ccccc2)C[C@@H]2O[C@@H]21 (some centres undefined),inactive: 16.4%

row,SMILES,inhibition
1,C[C@@H]1C=CCP(=O)(Oc2ccccc2)O1 (some centres undefined),inactive: -2.09%
2,Cc1ccccc1CN(C)C(=O)COC(=O)C(O)(c1ccccc1)c1ccccc1,inactive: 10.2%
3,CCNC(=S)/N=C(\N)N[N+](=O)[O-],inactive: 8.08%
4,O=C(NC1CCS(=O)(=O)C1)NP(=S)(Oc1ccccc1)Oc1ccccc1 (centres undefined),inactive: 22%
5,CCOC(=O)NC(Sc1ccccc1)C(Cl)(Cl)Cl (centres undefined),inactive: 25.7%
6,Cc1ccc(NP(=O)(Oc2cccc(C)c2)Oc2cccc(C)c2)nc1,inactive: 20.2%
7,c1ccc(-c2nn[nH]n2)c(-c2nn[nH]n2)c1,inactive: 8.26%
8,CN(C)C(=O)Oc1noc2ccccc12,inactive: 14.8%
9,CC(NC(=O)COC(=O)C(O)(c1ccccc1)c1ccccc1)c1ccccc1 (centres undefined),inactive: 15.6%
10,Cc1ccccc1OP(=O)(Nc1ccccn1)Oc1ccccc1C,inactive: -6.73%
11,Cc1ccc(OP(=O)(Nc2ccccn2)Oc2ccc(C)cc2)cc1,inactive: 21.3%
12,CC(=O)NC(SC(=S)N(CC(C)C)CC(C)C)C(Cl)(Cl)Cl (centres undefined),inactive: 25.1%
13,COC(=O)c1cc2c(s1)N=C(c1ccccc1)N(C)P2(=O)N1CCOCC1 (centres undefined),inactive: 13%
14,CCC(=O)N1C2C3N(C(=O)CC)C1C1N(C(=O)CC)C(C(N1C(=O)CC)N3C(=O)CC)N2C(=O)CC,inactive: -2.74%
15,O=C(OC1CN2CCC1CC2)c1ccccc1 (centres undefined),inactive: 4.72%
16,C[C@H]1OP(=O)(Oc2ccccc2)[C@H](O)[C@H](O)[C@H]1N=[N+]=[N-] (some centres undefined),inactive: 13.2%
17,O=P(Nc1nc2ccccc2s1)(c1ccccc1)c1ccccc1,inactive: 6.23%
18,O=P(Nc1ccccn1)(c1ccc(Br)cc1)c1ccc(Br)cc1,inactive: 14.2%
19,CN(C)C1(CNC(=O)c2ccc(Cl)c(S(N)(=O)=O)c2)CCCCC1,inactive: 7.72%
20,C(Cc1nn[nH]n1)Cc1nn[nH]n1,inactive: -8.3%
